The target of this assay is TRAP1 enzyme (Homo sapiens, UniProt Q12931). Briefly: Malachite green phosphate assay of TRAP1 ATPase activity. The method, then:
The Potency of test compounds to modulate the ATPase activity of TRAP1 enzyme was evaluated using malachite green phosphatase assay. The assay is based on quantification of the green complex formed between Malachite Green, molybdate and inorganic phosphate generated in the phosphatase reaction. Assays were performed using a Malachite Green assay kit. All the assays were carried out in a 96-well transparent plate. The buffer used was 50 mM HEPES (pH 7.5), 20 mM KCl, 4 mM MgCl2 and 0.05% BSA. 150 nM Trap1 enzyme was incubated with various concentrations of the test compound (0.78 μM-100 μM) at 37° C. for 30 mins. 20 μM ATP was added to each well (except blank wells) to start the reaction and the plate was then incubated at 37° C. for 180 mins. 10 μl of the reaction volume of each sample was then transferred to a white 384-well proxiplate in quadruplets. 2.5 μl of Malachite Green reagent was added to all the wells and the plate was equilibrated for 15 mins. The reaction was stopped by adding 12% H2SO4 and the plate was read for fluorescence at 620 nm (λex=573 nm). The amount of phosphate released was estimated from a phosphate standard curve generated at the same experimental conditions. […]

The chains behind the UniProt entries cited, without tags or fusion partners. Residues count along the entry.
UniProt Q12931, 60-704 limits assumed: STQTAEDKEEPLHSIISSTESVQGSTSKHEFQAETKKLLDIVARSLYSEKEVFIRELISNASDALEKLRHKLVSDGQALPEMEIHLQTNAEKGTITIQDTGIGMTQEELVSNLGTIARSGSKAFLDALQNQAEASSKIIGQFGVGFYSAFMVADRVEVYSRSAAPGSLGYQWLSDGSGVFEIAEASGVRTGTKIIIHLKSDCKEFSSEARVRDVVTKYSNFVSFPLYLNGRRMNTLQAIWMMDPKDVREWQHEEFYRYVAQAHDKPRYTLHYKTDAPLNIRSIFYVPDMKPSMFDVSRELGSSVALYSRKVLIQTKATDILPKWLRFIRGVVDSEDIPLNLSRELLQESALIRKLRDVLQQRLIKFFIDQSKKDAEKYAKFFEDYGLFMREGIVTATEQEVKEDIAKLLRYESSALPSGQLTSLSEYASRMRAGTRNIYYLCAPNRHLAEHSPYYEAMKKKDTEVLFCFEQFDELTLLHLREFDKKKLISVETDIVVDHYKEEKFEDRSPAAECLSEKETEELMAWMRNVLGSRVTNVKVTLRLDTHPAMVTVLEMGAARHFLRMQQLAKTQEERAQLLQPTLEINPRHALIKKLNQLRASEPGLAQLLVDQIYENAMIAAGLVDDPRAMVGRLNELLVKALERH

Molecules are shown by their SMILES.

As usually defined, the EC50 is the concentration that produces a half-maximal response. Consider `COc1ccc(NC(=O)c2ccccc2Cl)cc1S(=O)(=O)Nc1ccc(Br)cc1`, for which the “Malachite Green Fluor DRC: Mean Emax” value (maximal percent activation of TRAP1 ATPase, mean) is “D (“D” refers to 123-159%, inclusive)”. Where the note is “read-out: Malachite Green Fluor DRC: GeoMean EC50, TRAP1 ATPase activation, 150 nM Trap1, 20 μM ATP, geometric mean”, the EC50 lay within 20 to 100 µM.

The values above are taken from patent publication US20230174523A1, “BENZENESULFONAMIDE DERIVATIVES AS TRAP1 MODULATORS AND USES THEREOF” (Amathus Therapeutics, Inc., priority 2020, published 2023).
